# Assay results: patent US5441962A, “Method for treating hyperlipemia” (priority 1992, dated 1995)
# Read-outs that look alike come from different tables or passages of the source.
# System: mice
# Assay type: in vivo
# Details: oral
structure (smiles),measurement,setting,value
Cl.Cn1cc(OCC(O)CNC(C)(C)C)c2ccccc2c1=O (racemic) [(±)-4-(3-tert.-butylamino-2-hydroxypropoxy)-2-methyl-1 (2H)-isoquinolinone hydrochloride],"LD50, range in parentheses",female mice,1063 to 1566 mg/kg
same,"LD50, range in parentheses",male mice,1223 to 1587 mg/kg
